Source: patent publication US20140335050A1, “METHODS, COMPOSITIONS, AND KITS FOR THE TREATMENT OF CANCER” (The General Hospital Corporation, priority 2011, published 2014)

Legend:
Test in all cases: Antibody staining and flow cytometry (intracellular Melan-A/MART-1, gp100, TRP-2; surface MHC Class I)
Assay type in all cases: cell-based, human
[1] = test system: MALME-3M melanoma cell line
Description: (§1) Cells were fixed with 1% formaldehyde, permeabilized with 0.1% saponin, stained with monoclonal antibodies to melanocyte antigens. Antibodies were obtained with specificity for: MART-1 from Vector Labs (Burlingame, Calif.); gp100 HMB45 from DakoCytomation (Carpinteria, Calif.) and then visualized with goat anti-mouse FITC-conjugated secondary antibody from Invitrogen (Fredrick, Md.). The level of EGFP was determined by flow cytometry of unfixed cells that were washed and resuspended in 1×PBS.
(§2) Cells were plated at a density of 1×10^5 in 1 ml of medium in a 24-well plate and cultured for varying times as indicated in results. Typically, 3 days of culture in the presence of Hsp90 inhibitors was optimal for the functional studies performed. After incubation, cells were collected by trypsinization and then evaluated by flow cytometry.
(§3) Intracellular staining and flow cytometric analyses of cytoplasmic Melan-A/MART-1, and gp100 expression were performed as described previously. Cells were fixed with 1% formaldehyde, permeabilized with 0.1% saponin, stained with monoclonal antibodies to melanocyte antigens. Antibodies were obtained with specificity for: Melan-A/MART-1 from Vector Labs (Burlingame, Calif.); gp100/HMB45 from DakoCytomation (Carpinteria, Calif.) and then visualized with goat anti-mouse FITC-conjugated secondary antibody from Invitrogen (Frederick, Md.). The level of EGFP was determined by flow cytometry of unfixed cells washed and resuspended in 1×PBS. Surface staining of MHC Class I was carried out using the antibody W6/32 on cells harvested with Cell Stripper from MediaTech Inc. (Manassas, Va.) and carried out on ice.

[2] = test system: MUX melanoma cell line
Description: as §1, §2, §3
(§4) Cell were seeded at 1×10^6 cells in a T25 flask with 10 ml of media for the 4 day IFN-beta pre-treatments. Cells were then harvested and plated in 24 well plate at 1×10^5 cells per well in 1 ml of media for 3 day treatments.
(§5) For surface staining of HLA Class I and II antigens, cells were harvested using CellStripper™ from Mediatech (Manassas, Va.). All staining steps were performed on ice. Following a first incubation with antibody to Class I (W6/32) or Class II (L243) for 30 minutes. Stained cells were washed twice with cold PBS and then stained with a goat anti-mouse FITC secondary antibody to allow for quantitative analysis by flow cytometry. For evaluation of cytoplasmic antigens, including Melan-A/MART-1 and gp100, cells were first fixed in paraformaldehyde and permeabilized with saponin as previously described. Staining for cytoplasmic antigens was carried out at room temperature (22° C.).

[3] = test system: A375 melanoma cell line; conditions: for MHC Class I, geometric mean of surface staining (W6/32): 17-AEP 0.5, PU-H71 0.15, CCT018159 2.5
Description: as §1, §2, §3, §4, §5

[4] = MALME-3M, 3 days, IFN-beta 5000 Units/ml, 17-AEP 1.0, PU-H71 0.3, CCT018159 10.0 μg/ml
[5] = 3 days, IFN-beta 5000 Units/ml, 17-AEP 1.0, PU-H71 0.3, CCT018159 10.0 μg/ml
[6] = IFN-β 5000 IU/ml for three days
[7] = 3 days, IFN-beta 5000 Units/ml, 17-AEP 0.5, PU-H71 0.15, CCT018159 2.5 μg/ml

B1: IFN-β: IFN-β-1a (Avonex) obtained from Biogen-Idec; SEQ ID NO: 1 (protein, listed as Homo sapiens)
chain: MSYNLLGFLQRSSNFQCQKLLWQLNGRLEYCLKDRMNFDIPEEIKQLQQFQKEDAALTIYEMLQNIFAIFRQDSSSTGWNETIVENLLANVYHQINHLKTVLEEKLEKEDFTRGKLMSSLHLKRYYGRILHYLKAKEYSHCAWTIVRVEILRNFYFINRLTGYLRN
modifications: (1)..(166) IFN-beta-1a
Class I, fold increase relative to untreated control [1, 4]: 4.4 fold | Class I, geometric mean of surface staining (W6/32) [1, 4]: 194 | MART-1, fold increase relative to untreated control [1, 4]: 1.1 fold | MART-1, geometric mean of intracellular staining [1, 4]: 130 | TRP-2, fold increase relative to untreated control [1, 4]: 1.7 fold | TRP-2, geometric mean of intracellular staining [1, 4]: 179 | gp100, fold increase relative to untreated control [1, 4]: 2.4 fold | gp100, geometric mean of intracellular staining [1, 4]: 534 | MART-1, geometric mean of intracellular staining using anti-MART-1 ([1]; MALME-3M, IFN-β 5000 IU/ml for three days): 130 | MHC Class I, geometric mean of surface staining (W6/32) ([1]; MALME, three days, IFN-β 5000 Units/ml): 194 | Class I, fold increase relative to untreated control [2, 5]: 1.5 fold | Class I, geometric mean of surface staining (W6/32) [2, 5]: 158 | MART-1, fold increase relative to untreated control [2, 5]: 1.4 fold | MART-1, geometric mean of intracellular staining [2, 5]: 18 | TRP-2, fold increase relative to untreated control [2, 5]: 1.3 fold | TRP-2, geometric mean of intracellular staining [2, 5]: 55 | gp100, fold increase relative to untreated control [2, 5]: 1.8 fold | gp100, geometric mean of intracellular staining [2, 5]: 46 | MHC Class I, geometric mean of surface staining (W6/32) ([2]; 4 day IFN-β pre-treatment (5000 Units/ml), then 3 days with fresh IFN-β and the labelled HSP90 inhibitor (label IFN-β: no inhibitor), 17-AEP 1, PU-H71 0.3, CCT018159 10 mg/ml): 499 | MHC Class I, geometric mean of surface staining (W6/32) ([2]; 4 day IFN-β pre-treatment (5000 Units/ml), then 3 days without IFN-β with the labelled HSP90 inhibitor (label IFN-β: no inhibitor), 17-AEP 1, PU-H71 0.3, CCT018159 10 mg/ml): 207 | MART-1, geometric mean of intracellular staining using anti-MART-1 [2, 6]: 18 | MHC Class I, geometric mean of surface staining (W6/32) ([2]; single agent for 3 days, no IFN-β pre-treatment, IFN-β 5000 Units/ml, 17-AEP 1 μg/ml, PU-H71 0.3 μg/ml, CCT018159 10 μg/ml): 388 | MHC Class I, geometric mean of surface staining (W6/32) ([2]; three days, IFN-β 5000 Units/ml, 17-AEP 1 μg/ml, PU-H71 0.3 μg/ml, CCT018159 10 μg/ml): 158 | Class I, fold increase relative to untreated control [3, 7]: 2.3 fold | Class I, geometric mean of surface staining (W6/32) [3, 7]: 84 | MART-1, fold increase relative to untreated control [3, 7]: 1.3 fold | MART-1, geometric mean of intracellular staining [3, 7]: 8 | TRP-2, fold increase relative to untreated control [3, 7]: 1.5 fold | TRP-2, geometric mean of intracellular staining [3, 7]: 24 | gp100, fold increase relative to untreated control [3, 7]: 1.1 fold | gp100, geometric mean of intracellular staining [3, 7]: 17 | MHC Class I, geometric mean of surface staining (W6/32) ([3]; 4 day IFN-β pre-treatment (5000 Units/ml), then 3 days with fresh IFN-β and the labelled HSP90 inhibitor (label IFN-β: no inhibitor)): 99 | MHC Class I, geometric mean of surface staining (W6/32) ([3]; 4 day IFN-β pre-treatment (5000 Units/ml), then 3 days without IFN-β with the labelled HSP90 inhibitor (label IFN-β: no inhibitor)): 42 | MART-1, geometric mean of intracellular staining using anti-MART-1 [3, 6]: 9 | MHC Class I, geometric mean of surface staining (W6/32) ([3]; single agent for 3 days, no IFN-β pre-treatment, IFN-β 5000 Units/ml): 87 | MHC Class I, geometric mean of surface staining (W6/32) ([3]; three days, IFN-β 5000 Units/ml): 84
